scFv variants of Ab-14 (light chain) against a SARS-CoV-2 spike peptide

From the AlphaSeq antibody data of Engelhart et al. 2022 (doi:10.1038/s41597-022-01779-4), copy in the FLAb collection.

The target is the same throughout: PDVDLGDISGINAS, from the HR2 region of SARS-CoV-2 spike.

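The parent was found by panning a naive human phage display library on the peptide. The library (AAYL50) carries one to three amino acid substitutions per variant, with no insertions or deletions. AlphaSeq pools MATa yeast showing the antibodies with MATalpha yeast showing the peptide. Mating (16 h, 30 °C) was followed by selection of diploids and sequencing of their barcodes. The ratio of observed to expected reads was calibrated, replicate by replicate, on BCL2-family standards whose Kd was known from biolayer interferometry. Each pool was mated in three replicate cultures.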

Each scFv is VH, a 15-residue (Gly4Ser)3 linker, VL, as in the parent Ab-14, and differs from it in the CDRs of the light chain only.
VH: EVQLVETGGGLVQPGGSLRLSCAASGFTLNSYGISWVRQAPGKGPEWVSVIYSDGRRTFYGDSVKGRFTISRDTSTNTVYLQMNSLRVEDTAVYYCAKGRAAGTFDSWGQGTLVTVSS
VL: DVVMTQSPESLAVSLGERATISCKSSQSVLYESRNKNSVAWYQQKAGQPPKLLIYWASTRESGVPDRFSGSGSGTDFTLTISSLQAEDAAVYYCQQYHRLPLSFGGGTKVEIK

Variants are written as CDR1, CDR2 and CDR3 of the light chain (limits as in the source). Parent: KSSQSVLYESRNKNSVA, WASTRES, QQYHRLPLS. Affinities are written as log10 Kd with Kd in nM; a lower number is a better binder. A pair that was not seen in that replicate is written "n.d."; this usually means weak binding, but a binder can also be missed. In this assay the parent's reference entry averaged 0.65; its copy inside this library read 1.68.

CDR-L1,CDR-L2,CDR-L3,"log10 Kd, replicates",empty controls
KPSQSVLKESRNYNSVA,WASTRES,QQYHRLPLS,2.10 / 1.61 / 2.13,1 of 9 (2.48)
KSSQQVTYESRNKNSVA,WASTRES,QEYHRLPLS,2.86 / 4.28 / n.d.,1 of 9 (4.04)
KSSQSVLYESRGKNSVA,WASTRPS,QQYHRLYLS,n.d. / 4.78 / n.d.,4 of 9 (4.63)
KSSISVLYESRNKPSVA,WASTRES,QQYHRLPLS,1.69 / 1.66 / 1.66,1 of 9 (5.48)
KSSQSELYESRNKNSDA,WASTCES,QQYHRLPLS,n.d. / n.d. / n.d.,6 of 9 (4.78)
KSSQSALYEDRNKNSVA,WASTRES,QQYHWLPLS,1.66 / 1.26 / 3.10,1 of 9 (2.41)
KSSQSVLYESRNKNSNA,WASTRES,QAYHRLPLA,4.90 / 5.80 / 6.59,4 of 9 (4.87)
KMSQSVLYESRNKNSVA,WAYTRES,QQYHRCPLS,n.d. / n.d. / n.d.,0 of 9
KSSQSVLYESRNKNSVA,WASTRES,QQYMRDPLS,n.d. / n.d. / n.d.,1 of 9 (2.77)
KSLQSVLYESRNKNSVA,HASTRED,QQYHRLPLS,-0.80 / -0.33 / -0.52,1 of 9 (2.64)
KSSQSVLYGSRNKNSVA,WASTRDS,QQYHRSPLS,4.25 / n.d. / n.d.,2 of 9 (3.15)
ESSQEVLYESRHKNSVA,WASTRES,QQYHRLPLS,n.d. / n.d. / n.d.,2 of 9 (3.95)
KSSQHVLYNSRNKNSVN,WASTRES,QQYHRLPLS,4.27 / 4.39 / n.d.,1 of 9 (4.40)
KSSQSVLYESRNKNSVA,WISTREF,QQYHRLPLS,n.d. / n.d. / n.d.,1 of 9 (4.36)
KSSQPVLYESRNCNSVA,WASTRES,QQPHRLPLS,1.40 / 1.65 / 1.52,6 of 9 (3.67)
KSSQSVLYESRNKNSVA,WASQRAS,QQYHRLPLS,1.04 / 0.95 / 1.22,0 of 9
KSSQSVGYESRNKNDVA,WASTKES,QQYHRLPLS,2.94 / 1.98 / 2.41,1 of 9 (4.41)
KKSQSVLYESRNKNSVA,WASSRES,QQDHRLPLS,n.d. / n.d. / 5.31,1 of 9 (2.91)
KSSQSVLKKSRNYNSVA,WASTRES,QQYHRLPLS,n.d. / n.d. / n.d.,3 of 9 (4.08)
KSSQSVLYESVNKNLVA,WASTRES,QQYHRLPYS,3.40 / n.d. / 5.36,0 of 9
KSSQSVLWESRNFNSVA,WASTRES,QQQHRLPLS,n.d. / n.d. / n.d.,1 of 9 (3.81)
KSSQSVLYESMNKNSVA,WASARES,QQYHRLPLS,n.d. / n.d. / n.d.,1 of 9 (2.20)
KSSQSVLYESRNKNSVA,WASTFES,QQLHALPLS,n.d. / n.d. / 4.03,4 of 9 (3.54)
KSSQSVLYEWRNANSVA,WASTRES,QQYHRLPLS,1.16 / 1.38 / 1.33,0 of 9
KSSQVNLYESRNKNSVA,WASERES,QQYHRLPLS,1.04 / 1.18 / 1.20,2 of 9 (4.73)
KSSQSVLYESRNDNSVA,WASTWES,WQYHRLPLS,n.d. / 3.25 / 3.71,1 of 9 (4.69)
KSSQSVMVESRNKNTVA,WASTRES,QQYHRLPLS,3.22 / 2.99 / 3.20,3 of 9 (4.68)
KSSQSVLGESRNKNSVA,WASTRES,QQYHRLPLG,0.86 / 0.90 / 1.03,2 of 9 (4.41)
KSSQSVAYESRNKNWVA,WASTQES,QQYHRLPLS,n.d. / n.d. / n.d.,5 of 9 (4.75)
KYSQSVLFESRNKNSVA,WASTRES,QQYHRLPLS,1.33 / 2.06 / 1.43,2 of 9 (3.33)
KSSQSVLYVSRNKNSVA,WASTRES,QQYHRTPLD,n.d. / n.d. / n.d.,0 of 9
KSSQTVLYESRNKNMVA,WASTRES,QQYHRKPLS,5.20 / 2.55 / n.d.,1 of 9 (3.21)
KPSQSVLYESRNKNSVA,WASHRES,QQYHRLPLH,3.43 / n.d. / n.d.,2 of 9 (3.90)
KSSQSVLYESCNKNSVA,WASTRES,QSYHMLPLS,2.48 / 2.48 / 2.80,2 of 9 (3.59)
KSSQSVLYESCNKNSVA,WASTSKS,QQYHRLPLS,n.d. / n.d. / n.d.,3 of 9 (3.94)
KSSQSVLYESRNKNSVA,WASTREM,QQYHRLPRS,1.38 / 1.44 / 1.44,3 of 9 (4.55)
KSSQSVLYESRNKNSVA,WISTREK,QQYHYLPLS,n.d. / n.d. / n.d.,3 of 9 (3.48)
WSSQSVLYESRNKNSVA,WASTREW,QQYYRLPLS,n.d. / n.d. / n.d.,0 of 9
KVSQSVLYESRNKNSVA,WASTRES,QQYHRIPES,n.d. / n.d. / n.d.,0 of 9
WSSQSVLYEQRNKNSVA,WASTREC,QQYHRLPLS,n.d. / n.d. / n.d.,3 of 9 (4.75)

Extract of 4 entries:

| CDR-L1 | CDR-L2 | CDR-L3 | log10 Kd, replicates | empty controls |
|---|---|---|---|---|
| KPSQSVLYESRNKNSVA | WASHRES | QQYHRLPLH | 3.43 / n.d. / n.d. | 2 of 9 (3.90) |
| KSSQSVLYESRNKNSVA | WASTRES | QQYMRDPLS | n.d. / n.d. / n.d. | 1 of 9 (2.77) |
| KSSQQVTYESRNKNSVA | WASTRES | QEYHRLPLS | 2.86 / 4.28 / n.d. | 1 of 9 (4.04) |
| KSSQSVLYESCNKNSVA | WASTSKS | QQYHRLPLS | n.d. / n.d. / n.d. | 3 of 9 (3.94) |

Background: pairings of library AAYL50 with three empty control strains gave a value in 18% of cases (median 4.19, 5th percentile 2.99). Values in that range, when seen in few replicates, are hard to tell from nonspecific mating. For each scFv, signals with the empty controls are counted beside the result, with their mean in brackets.